As usually defined, the IC50 is the concentration that gives 50% inhibition.

Sequences of proteins named here, by UniProt entry; tags and fusion partners are left off.
UniProt P51907, whole entry: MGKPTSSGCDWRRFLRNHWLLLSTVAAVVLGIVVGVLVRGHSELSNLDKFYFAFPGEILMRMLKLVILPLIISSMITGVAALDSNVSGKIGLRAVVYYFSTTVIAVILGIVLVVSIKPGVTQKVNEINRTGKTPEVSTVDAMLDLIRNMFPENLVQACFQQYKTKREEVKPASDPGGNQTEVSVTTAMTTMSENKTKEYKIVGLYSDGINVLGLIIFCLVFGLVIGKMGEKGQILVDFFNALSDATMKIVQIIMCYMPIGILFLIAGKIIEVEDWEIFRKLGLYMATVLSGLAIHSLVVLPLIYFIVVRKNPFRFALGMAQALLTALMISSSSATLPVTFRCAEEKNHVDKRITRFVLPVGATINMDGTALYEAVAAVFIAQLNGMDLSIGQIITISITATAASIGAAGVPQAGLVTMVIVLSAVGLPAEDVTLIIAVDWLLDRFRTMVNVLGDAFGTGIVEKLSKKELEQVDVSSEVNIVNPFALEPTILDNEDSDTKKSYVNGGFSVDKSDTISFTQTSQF
UniProt Q15758, whole entry: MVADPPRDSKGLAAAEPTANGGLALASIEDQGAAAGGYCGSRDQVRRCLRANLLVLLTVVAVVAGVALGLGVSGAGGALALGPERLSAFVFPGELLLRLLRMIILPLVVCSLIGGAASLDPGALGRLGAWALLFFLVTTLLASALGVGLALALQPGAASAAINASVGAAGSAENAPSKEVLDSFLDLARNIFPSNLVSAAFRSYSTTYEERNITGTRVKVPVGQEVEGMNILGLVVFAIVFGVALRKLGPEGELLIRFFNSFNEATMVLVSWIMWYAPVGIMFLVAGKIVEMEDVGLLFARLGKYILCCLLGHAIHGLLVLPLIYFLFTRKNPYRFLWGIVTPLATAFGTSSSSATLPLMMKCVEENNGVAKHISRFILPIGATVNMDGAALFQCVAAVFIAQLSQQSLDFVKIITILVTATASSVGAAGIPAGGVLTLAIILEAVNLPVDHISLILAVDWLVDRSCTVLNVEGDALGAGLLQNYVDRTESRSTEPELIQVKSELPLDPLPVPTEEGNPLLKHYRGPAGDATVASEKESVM

For one assay, the target named is rEAAT3 (Rattus norvegicus, UniProt P51907). Briefly: Electrophysiology: SLC1 specificity, anion current in transfected HEK293 cells. To be noted: 0 mV, 10 mM glutamate and 130 mM NaSCN internal, No current = no outward current up to highest concentration tested (§ 20-50, || 100-400, # 1500-2500 µM). As for the experimental part:
We also tested the specificity of Lc-BPE for ASCT2 over other SLC1 family members (ASCT1, EAAT1-3, and EAAT5). […] However, the apparent affinity of human ASCT1 (hASCT1) for Lc-BPE was ∼3.8-fold lower than that of rASCT2 (SI Appendix, Fig. S3 B and C), showing slight preference for ASCT2. For the EAATs, the highest affinity interaction of Lc-BPE was with hEAAT5, Ki of 2.22 ± 0.46 µM, which was ∼3-fold higher Ki than rASCT2, while interaction with EAAT1, EAAT2, and EAAT3 was weaker (SI Appendix, Fig. S3).
Fig. S3. SLC-1 specificity of Lc-BPE. […] (B-C) Dose response curves obtained from currents recorded a fter application of Lc-BPE extracellularly to cells transiently expressing hASCT2, rASCT2, hASCT1 (panel B) and rEAAT1, rEAAT2, rEAAT3 and hEAAT5 (panel C) respectively. […]
Human embryonic kidney 293 (HEK293, ATCC CRL -11268) cells were cultured in DMEM media supplemented with 10% (v/v) fetal bovine serum (FBS), 2 mM glutamine, 1% penicillin streptomycin solution, 1 mM sodium pyruvate and non -essential amino acids. […] Cells were analyzed using electrophysiological techniques 24-40 hours after transfection. […]
cells. […] Current s traces were recorded using an Adams and List EPC7 amplifier and digitized using a Molecular Devices Digidata A/D converter. […]

A further assay deals with hASCT2 (Homo sapiens, UniProt Q15758). Briefly: Glutamine transport assay in proteoliposomes reconstituted with purified hASCT2. Conditions: read-out: IC50, inhibition of glutamine uptake in proteoliposomes; in the presence of 5 µM glutamine. An excerpt:
Our computational models predicted Lc-BPE as a competitive inhibitor targeting the substrate binding site. To test this prediction, we performed electrophysiological competition experiments in the presence of varying concentrations of the substrate, L-alanine. The results were consistent with a competitive inhibition mechanism (SI Appendix, Fig. S4). At low inhibitor concentrations, the alanine-induced currents were inward, as expected from transported substrates, indicative of the inability of Lc-BPE to displace alanine from the binding site. However, as inhibitor concentration increased, the currents became outwardly directed in a dose-dependent manner, which marked the displacement of alanine by the inhibitor (SI Appendix, Fig. S5). The apparent Ki increased as a function of the alanine concentration, as anticipated for a competitive mechanism (SI Appendix, Figs. S5 and S6). […]
cells. […] Current s traces were recorded using an Adams and List EPC7 amplifier and digitized using a Molecular Devices Digidata A/D converter.
Data analysis was performed as described previously 46. Linear and nonlinear curve fitting of the experimental data were analyzed using MicroCal Origin software. […]

Turning to `O=C(O[C@@H]1CN[C@H](C(=O)O)C1)c1ccc(C(=O)c2ccccc2)cc1`, the “Binding affinity Ki” value on rEAAT3 was “No current”. The IC50 at hASCT2 was 207 µM.

The values are drawn from publication PMC8449414, “Rational design of ASCT2 inhibitors using an integrated experimental-computational approach” (Proceedings of the National Academy of Sciences of the …, 2021).
